Paper PMC5650409 (Oncotarget, 2017)

Tests used:
[1] = tested on: SK-BR-3 tumor-bearing mice; conditions: mouse, in vivo
Protocol: (§1) All animal experiments were performed in adherence with the Peking Union Medical College Hospital (PUMCH) guidelines for the use of laboratory animals and were approved by PUMCH Clinical Center Animal Care and Use Committee. The pancreatic cancer tumor-bearing models were generated by subcutaneous injection of 5 × 10^6 human T3M4 pancreatic cancer cells (kindly supplied by Prof. Taiping Zhang from the Department of General Surgery, Peking Union Medical College Hospital) and SK-BR-3 breast cancer cells (kindly supplied by Prof. Wei Ge from Department of Immunology, Institute of Basic Medical Sciences), into the right shoulder of female athymic nude mice (Laboratory Animal Center of PUMCH). Tumor sizes were monitored with a vernier caliper. When the tumor reached approximately 3-5 mm in diameter, T3M4 tumor-bearing mice were intramuscularly injected with 0.2 mL turpentine into the left hind leg muscle. After 72 h, those tumor-bearing mice with a visible mass in left thigh muscle, were selected and used as models with aseptic inflammation.
(§2) In vivo PET imaging was performed using a small-animal PET scanner Inveon (Siemens Medical systems, USA). […] Mice were anesthetized with isoflurane and placed on a heated pad (to provide the animal with warmth throughout the scanning). PET images were acquired at 30, 60, 90 and 120 min post-injection. After the acquisition, region of interests (ROIs), including tumor, muscle, brain and kidney were drawn over major organs on decay-corrected whole-body coronal images using Inveon Research Workplace 4.1 software. Radioactivity concentration of organs was obtained from the mean pixel values within the multiple ROI volume, and converted into MBq/mL using a conversion factor. Assuming the density of tissue was 1 g/cm^3, the ROIs were converted to MBq/g and then divided by the administered activity, to obtain an imaging ROI-derived %ID/g.

T3M4 tumor-bearing mice = conditions: mouse, in vivo
Protocol: as §1, §2

^18F-FDG [reference compound]
radioactivity uptake in SK-BR-3 tumor [1]: high | uptake ratio of tumor-to-blood [1]: 0.54 ± 0.03 | uptake ratio of tumor-to-liver [1]: 2.97 ± 0.06 | uptake ratio of tumor-to-muscle [1]: 2.81 ± 0.06 | ratio of tumor-to-blood (T3M4 tumor-bearing mice): 0.28 ± 0.02 | ratio of tumor-to-inflammation (T3M4 tumor-bearing mice): 0.85 ± 0.09 | ratio of tumor-to-liver (T3M4 tumor-bearing mice): 2.83 ± 0.10 | ratio of tumor-to-muscle (T3M4 tumor-bearing mice): 2.95 ± 0.15
